This assay has as its target Neuromedin-K receptor (Homo sapiens, UniProt P29371). Nature of the assay: Tachykinin receptor 3 binding affinity was determined by incubation with CHO cells expressing human NK3 receptors. It is filed as cell-based.

Chains of the proteins cited; added tags and fusions are not shown.
UniProt P29371, whole entry: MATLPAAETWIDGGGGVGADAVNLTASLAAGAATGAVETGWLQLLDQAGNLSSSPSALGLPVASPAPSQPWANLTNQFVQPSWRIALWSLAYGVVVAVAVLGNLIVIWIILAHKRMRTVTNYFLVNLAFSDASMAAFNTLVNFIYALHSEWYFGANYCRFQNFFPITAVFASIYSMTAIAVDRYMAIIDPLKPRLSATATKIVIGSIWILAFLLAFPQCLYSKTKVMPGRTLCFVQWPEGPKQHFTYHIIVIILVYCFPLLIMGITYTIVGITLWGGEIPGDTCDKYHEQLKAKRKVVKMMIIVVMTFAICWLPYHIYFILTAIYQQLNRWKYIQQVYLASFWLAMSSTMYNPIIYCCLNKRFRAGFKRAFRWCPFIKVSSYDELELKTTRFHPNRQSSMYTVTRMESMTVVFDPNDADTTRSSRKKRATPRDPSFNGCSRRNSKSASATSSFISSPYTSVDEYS

What is called IC50 is the concentration that gives 50% inhibition. Read a low IC50 as greater potency in that assay.

The compound `CC(=O)N(C)C1(c2ccccc2)CCN(CCC[C@]2(c3ccc(Cl)c(Cl)c3)CCCN(C(=O)c3ccccc3)C2)CC1` [OSANETANT] yielded an IC50 of 0.8 nM.

For the origin of these results see ChEMBL document CHEMBL1150493, “A practical and scalable synthesis of SR 142801, a tachykinin NK3 antagonist” (Bioorg Med Chem Lett, 1997).
